Screens: PubChem BioAssay, ICCB-Longwood Screening Facility, Harvard Medical School
Many of the other results were omitted from the sample, so hits are more common in it than they were.
GIV-Gai inh: inhibitors of GIV peptide binding to Galpha-i3, primary screen, biochemical, fluorescence polarization, FITC-GIV GBA peptide, rat Galphai3. Guanine nucleotide-binding protein G(i) subunit alpha-3 (Rattus norvegicus), P08753. 90 min; stronger effect = lower value; scaled: aluminum fluoride 0%, vehicle 100%. percent of control (FP), % (test concentration not listed). hit rate 0.42% among 210,000. AID 1224905, 2016;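 active = replicate mean at 85% of control or lower, very high polarization wells dropped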;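 note: wells of about 15 µL received 100 nL stock; the first replicate is given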
* marks the source's active call; other numbers are inactive results.

Chains of the proteins cited; added tags and fusions are not shown.
Guanine nucleotide-binding protein G(i) subunit alpha-3 (Rattus norvegicus), P08753, UniProt P08753, whole entry, looked up: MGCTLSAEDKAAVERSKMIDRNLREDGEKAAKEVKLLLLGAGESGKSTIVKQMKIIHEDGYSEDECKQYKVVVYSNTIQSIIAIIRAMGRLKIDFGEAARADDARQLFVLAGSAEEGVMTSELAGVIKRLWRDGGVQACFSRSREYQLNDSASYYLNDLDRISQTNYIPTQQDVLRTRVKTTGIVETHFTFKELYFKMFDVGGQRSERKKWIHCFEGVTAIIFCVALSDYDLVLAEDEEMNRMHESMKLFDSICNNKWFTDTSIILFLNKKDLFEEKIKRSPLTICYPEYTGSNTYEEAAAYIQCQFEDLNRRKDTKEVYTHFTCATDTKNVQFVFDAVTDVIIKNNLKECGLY

GIV-Gai inh	Molecule
102	Cc1nc(-c2cc(S(=O)(=O)Nc3cccc(Cl)c3C)c(C)s2)cs1
102	CC(C)n1c(N2CCN(C(=O)CC3CCCC3)CC2)cc(=O)n(C(C)C)c1=O
28*	CCSC1=N/C(=C\c2ccc(N(C)C)cc2)C(=O)S1
107	CCSC1=N/C(=C\c2ccc(C)s2)C(=O)S1
106	CCSC1=N/C(=C\c2ccc(C(=O)O)cc2)C(=O)S1
100	COc1cccc(S(=O)(=O)N(C)Cc2nc3cc(C(=O)N(C)C)ccc3n2C)c1
103	COc1ccc(Nc2c3c4c(cccc4n(C)c2=O)C(=O)c2ccccc2-3)cc1
94	CC(=O)Nc1c2c3c(cccc3n(C)c1=O)C(=O)c1ccccc1-2
-62*	COCCCNc1c2c3c(cccc3n(C)c1=O)C(=O)c1ccccc1-2
94	O=C(NCCn1c(-c2ccncc2)nc2cccnc21)Nc1ccc(Br)cc1
101	Cc1cc(=O)oc2cc(OC(C)C(=O)Nc3ccccc3)ccc12 (stereo unspecified)
102	COc1ccccc1NC(=O)C1=C(C)NC(SCC(=O)Nc2ccc(C)cc2C)=C(C#N)C1c1ccccc1 (stereo unspecified)
98	COc1ccc(-c2nc(CCNC(=O)COc3ccccc3OC)cs2)cc1
7.6*	CCCCCCc1cc2cc(-c3nnc(-c4cccc(Cl)c4)o3)c(=O)oc2cc1O
140	CCCCCCc1cc2cc(-c3cc4c(c(C)[nH]3)c(=O)oc3cc(=O)c(CCCCCC)cc34)c(=O)oc2cc1O
101	O=c1oc2ccccc2cc1-c1nnc(-c2cccc(Cl)c2)o1
102	CCOC(=O)c1sc2nc(SCC(=O)N3CCCC3)n(Cc3cccs3)c(=O)c2c1C
104	CCCCc1nnc(SCC(=O)N2CCc3ccccc32)n1C
107	O=C(NCCc1ccccc1)c1nnc(-c2ccc3c(c2)OCO3)o1
113	Cc1cc(C)c2c(n1)SCCN2C(=O)NCCC(=O)NCCN(C)C1CCCCC1
124	Nc1c(C(=O)Nc2ccc(F)c(F)c2)sc2nc(-c3ccncc3)ccc12
-53*	Cc1ccc(NC(=O)c2sc3nc(-c4ccncc4)ccc3c2N)cc1
144	Cc1ccccc1NC(=O)c1sc2nc(-c3ccncc3)ccc2c1N
94	O=C(O)CSC1CC(=O)N(c2ccccc2)C1=O (stereo unspecified)
196	Cn1cccc1/C=C1/SC(=S)N(c2ccc(C(=O)O)cc2)C1=O
-65*	CN(C)/C=C1\SC(=S)N(c2ccc(Br)cc2)C1=O
104	Cc1c(N2C(=O)/C(=C/c3ccc(Br)cc3)SC2=S)c(=O)n(-c2ccccc2)n1C
109	COC(=O)C(C)N1C(=O)S/C(=C/c2cccn2C)C1=O (stereo unspecified)
122	CCOC(=O)C(C)N1C(=O)S/C(=C/c2ccc(-c3ccccc3C(=O)O)o2)C1=O (stereo unspecified)
-15*	COC(=O)C(C)N1C(=O)S/C(=C/c2ccc(N3CCCCCC3)o2)C1=O (stereo unspecified)
103	O=C(c1sc2cc([N+](=O)[O-])ccc2c1Cl)N1c2ccccc2CCc2ccccc21
118	CC1=CC(=C2C(=O)NC(=S)NC2=O)C=C(C(F)(F)F)O1
98	CCOC(=O)c1sc(NC(=O)c2cccc(S(=O)(=O)N3CCCCCC3)c2)c(C(=O)OCC)c1C
-3.8*	N#Cc1cc2ccc(O)cc2oc1=N
115	O=c1oc2cc(O)ccc2cc1-c1cc(F)cc(F)c1
109	NC(=O)c1cc2ccc(O)cc2oc1=O
99	COc1ccc(-c2nc3sc(CCNC(=O)c4ccc(Br)cc4)c(C)n3n2)cc1
103	N#Cc1cc2c(cc1C#N)N(Cc1ccccc1)CCN2Cc1ccccc1
127	Cn1c(-c2cc3ccc(O)c(CN4CCCC4)c3oc2=O)nc2ccccc21
102	COc1ccccc1-c1c(C(F)(F)F)oc2c(CN3CCCCC3C)c(O)ccc2c1=O (stereo unspecified)

Laid out differently: 2 of the compounds above
COc1ccc(-c2nc(CCNC(=O)COc3ccccc3OC)cs2)cc1
  GIV-Gai inh: 98

CCCCCCc1cc2cc(-c3nnc(-c4cccc(Cl)c4)o3)c(=O)oc2cc1O
  GIV-Gai inh: 7.6*

Later entries:
GIV-Gai inh	Molecule
-32*	CC1CCCCN1Cc1c(O)ccc2cc(-c3nc4ccccc4s3)c(=O)oc12 (stereo unspecified)
108	COC(=O)C1=C(C(=O)OC)SC(=C2C(=S)C(C)(C)N(C(=O)c3cccc(OC)c3)c3c(C)cccc32)S1
95	O=CNC1CCCc2c1[nH]c1ccccc21 (stereo unspecified)
146	CC1=CSC2=NC(=O)/C(=C\c3ccc(SCc4ccc(Cl)cc4)o3)C(=N)N12
110	O=C(CSc1n[nH]c2nc3ccccc3n12)N1CCc2ccccc21
104	COc1cc(C2C=C(C(=O)O)Nc3ncnn32)ccc1O (stereo unspecified)
143	COc1ccc2cc(C3=CC(c4ccc(Br)cc4)n4ncnc4N3)ccc2c1 (stereo unspecified)
-0.1*	COc1cc(C2C=C(c3cccs3)Nc3ncnn32)cc(OC)c1OC (stereo unspecified)
93	CC1CCC2(CC1)Nc1ccccc1NC2=NCc1ccc(Cl)cc1 (stereo unspecified)
129	COCC1=C(C(=O)OC)C(c2ccc(F)c(Br)c2)C(C#N)=C(N)O1 (stereo unspecified)
102	Cc1cc(S(=O)(=O)N2CCC(c3nc4c(nnn4Cc4ccc(F)cc4)c(=O)[nH]3)CC2)ccc1-n1cnnn1
105	Cc1nc2cccnc2n1-c1cc(C(=O)NCc2cccnc2)ccc1Cl
105	O=C(O)c1cccc(N2C(=O)c3ccc4c5c(ccc(c35)C2=O)C(=O)N(c2cccc(C(=O)O)c2)C4=O)c1
100	CC(=O)c1ccc(N2C(=O)c3cccc4c(Br)c([N+](=O)[O-])cc(c34)C2=O)cc1
85*	O=C(O)c1cc(NC(=O)c2cccc(N3C(=O)c4cccc5c([N+](=O)[O-])ccc(c45)C3=O)c2)cc(C(=O)O)c1
101	CCCCN(C)C(=O)CN1C(=O)c2cccnc2Oc2ccc(C)cc21
110	CN(C)C(=O)c1ccc(CN2CCc3c(c(C(=O)N4CCCC4)nn3C)C2)cc1
-46*	CC(=O)[C@]1(O)Cc2c(O)c3c(c(O)c2[C@@H](O[C@H]2C[C@H](N)[C@H](O)[C@H](C)O2)C1)C(=O)c1ccccc1C3=O
47*	COc1cccc2c1C(=O)c1c(O)c3c(c(O)c1C2=O)C[C@@](O)(C(C)=O)C[C@@H]3O[C@H]1C[C@H](N)[C@H](O)[C@H](C)O1
127	CC[C@@]1(O)C[C@H](O[C@H]2C[C@H](N(C)C)[C@H](O[C@H]3C[C@H](O)[C@H](O[C@H]4CCC(=O)[C@H](C)O4)[C@H](C)O3)[C@H](C)O2)c2c(cc3c(c2O)C(=O)c2c(O)cccc2C3=O)[C@H]1C(=O)OC

Five of the entries above in order of the GIV-Gai inh value, rising:
GIV-Gai inh	Molecule
-65*	CN(C)/C=C1\SC(=S)N(c2ccc(Br)cc2)C1=O
103	N#Cc1cc2c(cc1C#N)N(Cc1ccccc1)CCN2Cc1ccccc1
104	CCCCc1nnc(SCC(=O)N2CCc3ccccc32)n1C
105	Cc1nc2cccnc2n1-c1cc(C(=O)NCc2cccnc2)ccc1Cl
140	CCCCCCc1cc2cc(-c3cc4c(c(C)[nH]3)c(=O)oc3cc(=O)c(CCCCCC)cc34)c(=O)oc2cc1O

Later entries
GIV-Gai inh	Molecule
-69*	CCN(CC)c1ccc2cc(-c3nc(-c4ccc(Cl)cc4Cl)cs3)c(=O)oc2c1
219	CCN(CC)c1ccc2cc(-c3nnc(-c4ccccc4)o3)c(=O)oc2c1
250	CCN(CC)c1ccc2cc(-c3nc4ccccc4s3)c(=O)oc2c1
-24*	CCN(CC)c1ccc2cc(-c3nc4ccccc4n3C)c(=O)oc2c1
170	CCN(CC)c1ccc2cc(-c3nnc(Nc4ccc(Br)cc4)s3)c(=O)oc2c1
137	CCN(CC)c1ccc2cc(-c3nc(-c4ccc(Br)cc4)cs3)c(=Nc3ccc(Cl)cc3)oc2c1
89	O=C(O)C1CCN(C2CC(=O)N(c3cccc(Cl)c3)C2=O)CC1 (stereo unspecified)
97	CCCCN(C)Cc1c(O)ccc2c(=O)c(-c3ccccc3OC)c(C(F)(F)F)oc12
